Protein sequences, listed by entry. Tags and fused reporters are not part of them. Lines headed by an entry give the natural chain unless they say otherwise; changes in a name come on top.
UniProt Q07820: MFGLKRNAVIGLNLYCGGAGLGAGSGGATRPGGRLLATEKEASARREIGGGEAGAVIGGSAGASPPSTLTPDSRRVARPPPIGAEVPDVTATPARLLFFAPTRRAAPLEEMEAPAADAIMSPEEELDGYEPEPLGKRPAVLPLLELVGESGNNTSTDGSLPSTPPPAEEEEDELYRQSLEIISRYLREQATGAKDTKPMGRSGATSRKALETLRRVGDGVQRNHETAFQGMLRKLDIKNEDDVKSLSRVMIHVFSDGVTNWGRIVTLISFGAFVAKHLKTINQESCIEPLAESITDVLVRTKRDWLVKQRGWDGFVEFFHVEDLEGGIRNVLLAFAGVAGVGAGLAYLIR

According to publication PMC5127641:

Target: Mcl-1, biotinylated (C-terminal avi-6His) (human) (UniProt Q07820)

Question: For “αMCL1 (anti-Mcl-1; computational design M-CDP04) (designed binder)”, which decrease in long-term (seven day) colony survival of Mcl-1-dependent MEFs on induced expression of αMCL1 is on record?
Answer: Its decrease in long-term (seven day) colony survival of Mcl-1-dependent MEFs on induced expression of αMCL1 is 90%.
